Our source for the outcome and AC50 values is PubChem BioAssay (EPA / NIEHS).

Amino acid sequences for entries named in this document (tags omitted). A change or cut given only in a name is not applied to a line headed by its entry.
UniProt P49884, whole entry, looked up: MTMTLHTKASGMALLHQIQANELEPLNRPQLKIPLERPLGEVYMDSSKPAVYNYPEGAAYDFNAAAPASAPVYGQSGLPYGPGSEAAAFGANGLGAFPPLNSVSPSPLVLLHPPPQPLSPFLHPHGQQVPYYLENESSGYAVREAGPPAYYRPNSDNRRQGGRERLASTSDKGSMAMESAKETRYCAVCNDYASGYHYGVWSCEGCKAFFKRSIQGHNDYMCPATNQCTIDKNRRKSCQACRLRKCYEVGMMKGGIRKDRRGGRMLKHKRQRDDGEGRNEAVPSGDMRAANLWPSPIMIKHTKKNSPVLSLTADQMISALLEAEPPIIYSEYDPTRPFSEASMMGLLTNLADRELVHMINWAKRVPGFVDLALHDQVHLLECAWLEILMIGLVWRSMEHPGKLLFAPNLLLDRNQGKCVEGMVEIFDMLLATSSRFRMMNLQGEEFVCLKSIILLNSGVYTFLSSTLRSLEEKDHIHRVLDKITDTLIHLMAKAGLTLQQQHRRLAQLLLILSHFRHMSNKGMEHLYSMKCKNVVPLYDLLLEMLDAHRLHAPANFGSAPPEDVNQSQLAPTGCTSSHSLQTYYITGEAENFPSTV
UniProt O97775: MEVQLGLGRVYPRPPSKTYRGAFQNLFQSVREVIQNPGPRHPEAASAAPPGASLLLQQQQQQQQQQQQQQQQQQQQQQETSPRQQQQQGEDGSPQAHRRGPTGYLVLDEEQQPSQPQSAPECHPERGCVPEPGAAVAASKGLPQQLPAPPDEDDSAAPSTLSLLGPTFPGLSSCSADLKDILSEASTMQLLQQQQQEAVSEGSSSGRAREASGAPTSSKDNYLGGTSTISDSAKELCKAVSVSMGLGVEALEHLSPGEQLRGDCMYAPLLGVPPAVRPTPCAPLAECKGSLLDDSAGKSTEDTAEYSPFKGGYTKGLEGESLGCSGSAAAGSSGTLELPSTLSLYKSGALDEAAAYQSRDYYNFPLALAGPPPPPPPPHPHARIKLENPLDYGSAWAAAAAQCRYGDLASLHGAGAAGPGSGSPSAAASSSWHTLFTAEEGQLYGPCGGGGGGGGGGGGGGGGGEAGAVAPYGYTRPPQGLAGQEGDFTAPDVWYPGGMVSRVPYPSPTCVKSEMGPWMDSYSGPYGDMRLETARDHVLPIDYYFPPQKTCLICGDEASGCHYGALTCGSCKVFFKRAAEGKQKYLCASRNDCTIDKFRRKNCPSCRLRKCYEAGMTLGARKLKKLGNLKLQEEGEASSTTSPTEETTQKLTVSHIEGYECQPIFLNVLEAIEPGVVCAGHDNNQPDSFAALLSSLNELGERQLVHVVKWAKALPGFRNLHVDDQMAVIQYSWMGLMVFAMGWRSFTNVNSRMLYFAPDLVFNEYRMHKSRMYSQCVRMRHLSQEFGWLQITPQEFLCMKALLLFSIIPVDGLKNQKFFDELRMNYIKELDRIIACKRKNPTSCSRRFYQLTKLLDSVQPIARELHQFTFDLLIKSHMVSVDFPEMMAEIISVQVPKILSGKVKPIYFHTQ
UniProt P03372, whole entry, looked up: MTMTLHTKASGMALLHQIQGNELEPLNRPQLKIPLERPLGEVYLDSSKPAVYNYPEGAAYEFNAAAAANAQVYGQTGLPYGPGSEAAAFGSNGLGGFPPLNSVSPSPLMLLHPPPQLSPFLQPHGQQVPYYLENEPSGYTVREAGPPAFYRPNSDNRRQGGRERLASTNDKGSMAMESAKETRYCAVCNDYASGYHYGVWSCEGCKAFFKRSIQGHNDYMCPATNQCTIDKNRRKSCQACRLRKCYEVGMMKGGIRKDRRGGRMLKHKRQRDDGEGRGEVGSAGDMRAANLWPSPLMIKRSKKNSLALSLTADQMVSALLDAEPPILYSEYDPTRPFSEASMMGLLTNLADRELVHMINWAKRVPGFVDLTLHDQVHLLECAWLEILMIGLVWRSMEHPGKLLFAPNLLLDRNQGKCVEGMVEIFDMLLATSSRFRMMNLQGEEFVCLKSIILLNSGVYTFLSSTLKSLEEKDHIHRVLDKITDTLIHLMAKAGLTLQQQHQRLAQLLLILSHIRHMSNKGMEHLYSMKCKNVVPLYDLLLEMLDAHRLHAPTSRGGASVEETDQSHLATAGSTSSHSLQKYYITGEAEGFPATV
UniProt P30536, whole entry, looked up: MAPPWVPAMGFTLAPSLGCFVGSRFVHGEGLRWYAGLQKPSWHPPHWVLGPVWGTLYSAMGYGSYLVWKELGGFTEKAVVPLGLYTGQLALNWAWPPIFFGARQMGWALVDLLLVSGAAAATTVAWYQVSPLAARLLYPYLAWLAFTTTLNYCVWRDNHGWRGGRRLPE
UniProt P16257, whole entry, looked up: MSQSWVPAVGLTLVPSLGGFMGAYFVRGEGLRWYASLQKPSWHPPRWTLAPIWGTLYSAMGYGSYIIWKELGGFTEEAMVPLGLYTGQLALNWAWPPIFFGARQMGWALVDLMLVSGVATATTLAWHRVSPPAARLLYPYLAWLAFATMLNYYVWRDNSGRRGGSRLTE
UniProt P30191, whole entry, looked up: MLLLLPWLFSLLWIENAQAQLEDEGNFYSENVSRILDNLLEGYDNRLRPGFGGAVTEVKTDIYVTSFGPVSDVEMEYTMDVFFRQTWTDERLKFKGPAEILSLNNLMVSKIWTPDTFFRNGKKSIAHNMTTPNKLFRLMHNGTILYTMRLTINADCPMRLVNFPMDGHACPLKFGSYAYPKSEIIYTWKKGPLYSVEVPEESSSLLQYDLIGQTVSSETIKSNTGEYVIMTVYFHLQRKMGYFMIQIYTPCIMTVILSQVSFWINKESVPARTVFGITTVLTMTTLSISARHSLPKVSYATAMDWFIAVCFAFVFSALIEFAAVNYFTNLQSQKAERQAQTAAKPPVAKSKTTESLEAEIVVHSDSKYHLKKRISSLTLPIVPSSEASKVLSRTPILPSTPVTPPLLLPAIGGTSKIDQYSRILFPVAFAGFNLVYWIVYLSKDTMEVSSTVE
UniProt Q14994: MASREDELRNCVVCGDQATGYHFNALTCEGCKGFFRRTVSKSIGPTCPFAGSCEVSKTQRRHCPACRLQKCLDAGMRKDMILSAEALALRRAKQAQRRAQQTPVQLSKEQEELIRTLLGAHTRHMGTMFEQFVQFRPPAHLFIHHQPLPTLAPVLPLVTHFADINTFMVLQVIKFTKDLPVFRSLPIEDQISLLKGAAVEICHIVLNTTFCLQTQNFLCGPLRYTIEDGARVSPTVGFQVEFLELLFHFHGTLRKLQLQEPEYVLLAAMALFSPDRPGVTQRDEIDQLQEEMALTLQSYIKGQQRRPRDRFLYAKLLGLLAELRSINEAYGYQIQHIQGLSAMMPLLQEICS
UniProt Q96RI1: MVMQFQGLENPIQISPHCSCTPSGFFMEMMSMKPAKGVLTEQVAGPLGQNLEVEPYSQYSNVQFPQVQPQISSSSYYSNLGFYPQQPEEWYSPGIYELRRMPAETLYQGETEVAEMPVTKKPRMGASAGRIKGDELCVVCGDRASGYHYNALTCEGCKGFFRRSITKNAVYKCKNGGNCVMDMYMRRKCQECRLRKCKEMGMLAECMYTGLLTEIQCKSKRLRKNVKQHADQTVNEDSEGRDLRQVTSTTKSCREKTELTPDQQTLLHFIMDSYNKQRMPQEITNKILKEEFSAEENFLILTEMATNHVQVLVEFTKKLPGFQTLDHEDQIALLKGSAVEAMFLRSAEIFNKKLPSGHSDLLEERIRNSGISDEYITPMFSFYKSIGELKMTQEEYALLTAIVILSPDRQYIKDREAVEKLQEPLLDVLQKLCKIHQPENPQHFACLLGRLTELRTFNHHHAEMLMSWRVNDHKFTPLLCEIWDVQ

As a reminder, the AC50 is the midpoint of the concentration-response curve, whichever way the signal moves.

In assay [1] the target is bovine Estrogen Receptor (ER), ESR1 (gene 407238) (UniProt P49884). Kind of assay: NVS_NR_bER: NovaScreen (NVS) Nuclear Receptor Binding Assay for bovine Estrogen Receptor (ER) (AID 2283345).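 Note: actives lower the bound radioligand count which means they displace the ER ligand.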 The gist of the method: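 Scintillation counting of displaced radioligand gave the readout; bovine uterine membrane extract supplied the receptor. Measured 18 h post-dose, normalized to DMSO baseline. Single 25 uM duplicate screen preceded concentration-response follow-up.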

Assay [2] concerns the target chimpanzee Androgen Receptor (AR), AR (gene 747460) (UniProt O97775). Kind of assay: NVS_NR_cAR: NovaScreen (NVS) Nuclear Receptor Binding Assay for chimpanzee Androgen Receptor (AR) (AID 2283346).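 Note: radioligand displacement from AR measured by scintillation counting in a cell-free assay; a loss of bound radioligand signal versus DMSO counts as binding.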 The method in brief:
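Radioligand binding to chimpanzee AR expressed in Sf9/Sf21 cells, cell-free, measured 72 h after dosing by lysate-based scintillation counting. Loss of signal vs DMSO; initial duplicate screen at 25 uM, actives retested in concentration series.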

For assay [3], the target named is Estrogen receptor (Homo sapiens) (UniProt P03372). Kind of assay: NVS_NR_hER: NovaScreen (NVS) Nuclear Receptor Binding Assay for human Estrogen Receptor (ER) (AID 2283348). How it is done: NVS_NR_hER is a biochemical, single-readout assay that uses extracted gene-proteins from MCF7 in a cell-free assay. Measurements were taken 18 hours after chemical dosing in a 96-well plate.NVS_NR_hER is one of one assay component(s) measured or calculated from the NVS_NR_hER assay. It is designed to make measurements of radioligand binding, a form of binding reporter, as detected with scintillation counting signals by Lysate-based radiodetection technology.Data from the assay component NVS_NR_hER was analyzed into 1 assay endpoint. This assay endpoint, NVS_NR_hER, was analyzed in the positive analysis fitting direction relative to DMSO as the negative control and baseline of activity. […] Furthermore, this assay endpoint can be referred to as a primary readout, because the performed assay has only produced 1 assay endpoint. […]
Binding assays used specific radioligands (tritiated, iodinated) with non-radioactive competitive displacement ligands in agonist or antagonist protocols (as indicated) and various reference compounds and inhibitors to titrate specific binding to receptors and transporters. Most enzyme assays (CYPs, kinases, phosphatases, proteases, HDACs) used recombinant protein and specific substrates (fluorescence mostly, some colorimetric and radioactive) and inhibitors, followed by a biochemical separation of substrate and product. […]

Assay [4] shares this target. Briefly: OT_ER_ERaERa_1440: Odyssey Thera (OT) 24-hour HEK293T Protein-Complementation Assay for Estrogen Receptor-alpha/-alpha Homodimer (AID 2283349).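 Note: hits raise fluorescence above DMSO for agonists and antagonists alike.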 The method in brief: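 Cells (HEK293T) carrying the fragment-tagged ERα LBD (aa 310-547) pair are treated with chemical for 24 hours. Nuclear and/or cytoplasmic fluorescence is then quantified on a laser scanning cytometer. Activity is scored as signal gain against DMSO.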

For assay [5], the target named is human Peripheral-type Benzodiazepine Receptor (PBR), TSPO (gene 706) (UniProt P30536). Briefly: NVS_MP_hPBR: NovaScreen (NVS) Membrane Protein Assay for human Peripheral-type Benzodiazepine Receptor (PBR) (AID 2283331).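 Note: hits reduce radioligand binding relative to DMSO baseline.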 The gist of the method: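 Cell-free radioligand displacement, human colonic membranes, 1 h exposure. Filter radiodetection read-out. Single-concentration duplicates (25 uM), then concentration-response for actives; DMSO negative control.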

Assay [6] concerns the target rat Peripheral-type Benzodiazepine Receptor (PBR), Tspo (gene 24230) (UniProt P16257). Kind of assay: NVS_MP_rPBR: NovaScreen (NVS) Membrane Protein Assay for rat Peripheral-type Benzodiazepine Receptor (PBR) (AID 2283335). The method in brief: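 Single-concentration duplicate screening at 25 uM preceded concentration-series retesting of actives. Binding of a specific radioligand to rat kidney membrane PBR was read by filtration radiodetection after 1 h, with plate-wise positive and negative controls.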

The target in assay [7] is rat Gamma-Aminobutyric Acid Type A Receptor BDZ, alpha 6 site (GABARa6), Gabra6 (gene 29708) (UniProt P30191). Kind of assay: NVS_LGIC_rGABARa6: NovaScreen (NVS) Ligand-Gated Ion Channel Assay for rat Gamma-Aminobutyric Acid Type A Receptor BDZ, alpha 6 site (GABARa6) (AID 2283339). The method in brief: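 Actives from a 25 uM duplicate screen were retested in concentration series (max 50 uM). Specific radioligand displacement from rat cerebellar membranes was counted by filter-based scintillation at 1 h; DMSO served as baseline.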

In the next assay the test system is NCBI gene 100848466. Briefly: NVS_NR_bPR: NovaScreen (NVS) Nuclear Receptor Binding Assay for bovine Progextron Receptor (PR) (AID 2283343).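 Note: actives lower bound radioligand signal below DMSO meaning displacement of the label.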 The gist of the method:
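Scintillation counts of bound radioligand were read 18 hours after chemical addition to membranes extracted from bovine uterus. Displacement was scored as loss of signal relative to DMSO controls. Screening began at 25 uM in duplicate.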

Assay [8] has as its target human Constitutive Androstane Receptor (CAR), NR1I3 (gene 9970) (UniProt Q14994). Briefly: NVS_NR_hCAR_Antagonist: NovaScreen (NVS) Nuclear Receptor Binding Assay for human Constitutive Androstane Receptor Antagonism (CAR) (AID 2283344). The method in brief:
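Single 25 uM duplicate primary screen, with concentration-series follow-up on actives. Cell-free binding format run in antagonist mode, TR-FRET signal taken 1 h post-dose; activity is signal loss relative to DMSO.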

For assay [9], the target named is Bile acid receptor (Homo sapiens) (UniProt Q96RI1). Briefly: NVS_NR_hFXR_Antagonist: NovaScreen (NVS) Nuclear Receptor Binding Assay for human Farnesoid X Receptor Antagonism (FXR) (AID 2283350). The method in brief: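 Antagonist-format time-resolved FRET binding assay with extracted human receptor protein, read 1 hour after compound addition. Compounds first screened at 25 uM in duplicate, then actives tested in concentration series, with loss of signal relative to DMSO.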

“And” between values parts separate entries of the source, which are not always exact repeats. Equal entries are not always repeated. The list shows a part of the results, in another mix than the full data. Inconclusive results are not listed. The source made the active and inactive calls. Rule for the calls: active = hit-call score of the fitted dose curve at least 0.9, where 1 is the maximum; inconclusive = response in the unintended direction; inactive = score below 0.9.

For the compound `ClP(Cl)c1ccccc1`, the compound was called inactive in assay [1], in assay [2], in assay [3] and in [4].
As to `CN(C(=O)Cc1cccc2occc12)[C@H]1CC[C@@]2(CCCO2)C[C@@H]1N1CCCC1`, the result in assay [4] was inactive.
Same read-out and setting: with `CC(C)CCCCCCCOP(OCCCCCCCC(C)C)Oc1ccccc1` the entry was “inactive”.
`CC(C)OP(=S)(OC(C)C)SCCNS(=O)(=O)c1ccccc1`: the AC50 was active: 1.78 µM and active: 1.15 µM and active: 2.21 µM in [5]; active: 1.11 µM and active: 1.44 µM and active: 916 nM in assay [6]; active: 2.25 µM and active: 2.17 µM and active: 2.04 µM in the assay with NCBI gene 100848466; active: 3.19 µM and active: 3.47 µM and active: 4.12 µM in assay [8]. Besides, in [7], the result was inactive.
Consider `O=C1C2CC=CCC2C(=O)N1SC(Cl)(Cl)C(Cl)Cl` (configuration not stated), for which the compound was called inactive in assay [9].
Consider `CCCCOP(OCCCC)OCCCC`, for which the AC50 in [5] was active: 6.62 µM; in [6], active: 1.76 µM.
`O=[P+](Oc1ccccc1)Oc1ccccc1`: in [1], the AC50 was active: 25 µM. Moreover, in assay [4], the result was inactive.
As to `CCCCO[P+](=O)OCCCC`, the outcome in assay [6] was inactive.
